Yeast mating assay 2: variants of the scFv Ab-91

From the AlphaSeq antibody data of Engelhart et al. 2022 (doi:10.1038/s41597-022-01779-4), copy in the FLAb collection.

All variants were tested on one target, the spike HR2 peptide PDVDLGDISGINAS (SARS-CoV-2).

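The parent was found by panning a naive human phage display library on the peptide. Library AAYL51 holds single substitutions and randomly drawn double and triple substitutions in the CDRs. The scFvs were displayed on barcoded MATa yeast, the peptide on MATalpha yeast. After mating in shaken culture at 30 °C for 16 h, diploids were selected and their barcode pairs sequenced. A regression on co-assayed BCL2-family reference pairs converts the normalised counts of each replicate to an apparent Kd. Each pool was mated in three replicate cultures.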

Parent scFv Ab-91: VL joined to VH by three GGGGS repeats. Changes lie in the heavy chain CDRs alone.
VL: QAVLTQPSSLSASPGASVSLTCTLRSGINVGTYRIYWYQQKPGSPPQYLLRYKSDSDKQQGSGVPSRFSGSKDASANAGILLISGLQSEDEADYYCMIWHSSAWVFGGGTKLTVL
VH: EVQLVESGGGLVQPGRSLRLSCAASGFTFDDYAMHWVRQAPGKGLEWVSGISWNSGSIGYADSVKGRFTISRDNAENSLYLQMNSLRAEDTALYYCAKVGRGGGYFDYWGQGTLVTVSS

Changes read parent residue, position, new residue, counted from the first residue of the VH shown.
Scale: log10 of Kd in nM, estimated from mating counts; low values are strong binders.
An entry "nd" has no value in the source: the pair was not observed among the diploids in that replicate. This suggests poor binding but is not conclusive.
Background: pairings of library AAYL51 with three empty control strains gave a value in 21% of cases (median 4.54, 5th percentile 3.26). Values in that range, when seen in few replicates, are hard to tell from nonspecific mating. Also given: how often the same scFv was detected with the empty control strains, with their mean in brackets.
Parent in this assay: reference entry 1.86, copy in this library 0.88.

| changes | replicates, log10 nM | empty controls |
|---|---|---|
| G26N+G104A+D107C | nd / nd / nd | 0 of 9 |
| S52W+K65V+G103T | nd / nd / nd | 1 of 9 (2.33) |
| G26L+S57T+D107A | nd / nd / 3.25 | 2 of 9 (4.18) |
| S55N+S63C+V99I | nd / nd / nd | 0 of 9 |
| F29Y+D62V+G103M | nd / nd / nd | 1 of 9 (2.18) |
| M34N+I51T+S52M | 4.20 / 4.81 / nd | 1 of 9 (3.56) |
| Y32I+G59P+Y108M | 5.27 / nd / nd | 3 of 9 (4.92) |
| H35M+N54A+K65M | nd / nd / 4.59 | 3 of 9 (4.74) |
| H35S+W53H+D107G | nd / nd / nd | 0 of 9 |
| A33K+V64Y+Y105P | nd / nd / nd | 0 of 9 |
| G59H+R101A+Y108I | nd / nd / nd | 0 of 9 |
| I51Y+N54L+I58D | 5.00 / nd / 4.90 | 3 of 9 (4.96) |
| V99R+R101P+Y108M | nd / 5.47 / nd | 4 of 9 (4.89) |
| G50A+G103C | 4.26 / nd / nd | 0 of 9 |
| Y32T+G102S+Y105F | 4.20 / 4.92 / nd | 2 of 9 (4.10) |
| G59Y+R101C+G102W | nd / nd / nd | 2 of 9 (3.85) |
| W53H+G59R+G103N | 5.14 / 4.84 / 3.41 | 5 of 9 (4.46) |
| S52A+S63H+G102H | 3.37 / 5.15 / nd | 1 of 9 (4.96) |
| G26I+G102Y+G104Y | 4.58 / 5.57 / nd | 2 of 9 (4.53) |
| H35Y+W53A+I58H | nd / nd / nd | 2 of 9 (3.22) |
| H35F+V64N+G103I | 4.72 / 4.46 / nd | 1 of 9 (5.43) |
| G26L+A33K+I58A | 5.26 / nd / 4.84 | 3 of 9 (4.48) |
| F29H+G104E | 4.69 / 6.48 / 4.71 | 7 of 9 (4.84) |
| Y32F+H35V+S52M | nd / 5.12 / nd | 2 of 9 (4.84) |
| G50A+Y60F+G100L | nd / nd / nd | 1 of 9 (3.00) |
| D31L+G59R | 5.48 / nd / nd | 3 of 9 (4.31) |
| N54C+V99R | nd / nd / nd | 0 of 9 |
| G56I+K65Q | 2.99 / 3.21 / 3.02 | 8 of 9 (4.65) |
| S55N+V64W+G104I | nd / 5.65 / 4.36 | 3 of 9 (4.67) |
| M34Y+N54L+S55V | nd / nd / 4.25 | 1 of 9 (2.96) |
| H35F+S63E+G102E | nd / 4.88 / 3.54 | 1 of 9 (4.13) |
| D30I | 2.20 / 2.45 / 2.26 | 2 of 9 (5.04) |
| S57P+I58H+V64A | nd / nd / nd | 0 of 9 |
| G26H+F29Y+S52L | nd / nd / nd | 2 of 9 (3.82) |
| G26N+A61D+K65E | 4.14 / 4.11 / 4.80 | 2 of 9 (4.53) |
| N54D+G59C+D62T | nd / nd / nd | 1 of 9 (3.39) |

Repeated from above, the 3 best binders with a signal in all replicates:

| changes | replicates, log10 nM | empty controls |
|---|---|---|
| D30I | 2.20 / 2.45 / 2.26 | 2 of 9 (5.04) |
| G56I+K65Q | 2.99 / 3.21 / 3.02 | 8 of 9 (4.65) |
| G26N+A61D+K65E | 4.14 / 4.11 / 4.80 | 2 of 9 (4.53) |